Patent US7271190B2, “Indazole compounds as β3 adrenoceptor agonist” (Asahi Kasei Pharma Corporation, priority 2001, dated 2007)

Chains of the proteins cited; added tags and fusions are not shown.
UniProt P13945, whole entry: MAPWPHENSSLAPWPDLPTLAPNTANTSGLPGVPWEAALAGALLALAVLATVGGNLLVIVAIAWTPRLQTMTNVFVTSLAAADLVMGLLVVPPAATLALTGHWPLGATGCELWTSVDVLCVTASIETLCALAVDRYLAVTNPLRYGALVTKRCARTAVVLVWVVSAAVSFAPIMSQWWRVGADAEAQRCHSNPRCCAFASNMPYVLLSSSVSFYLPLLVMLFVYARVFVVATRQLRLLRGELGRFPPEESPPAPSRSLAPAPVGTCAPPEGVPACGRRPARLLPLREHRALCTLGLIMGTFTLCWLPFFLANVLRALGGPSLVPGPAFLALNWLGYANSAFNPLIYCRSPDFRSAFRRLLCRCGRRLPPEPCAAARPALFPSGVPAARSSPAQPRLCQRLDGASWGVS

Target: human β3 (Homo sapiens, UniProt P13945)
Assay: Human β3-agonist activities (cAMP in transfected CHO cells)
Method: Human β3-Agonist Activities
Human β3-agonist activities were determined using CHO (Chinese hamster ovary) cells transfected with pcDNA3 (mfd. by Invitrogen) to which human β3 gene had been inserted. Human β3 fragment was first obtained from human adipose tissue cDNA (mfd. by Clonetech) by PCR using the primer of β3 (Krief, et al., J. Clin. Invest., vol. 91, pp. 344-349 (1993)). The human β3 fragment thus obtained was used as a probe to obtain the full length human β3 gene from a human genomic library (mfd. by Clonetech). The above cells were cultured in a Ham F-12 medium supplemented with 10% fetal bovine serum, 400 μg/mL geneticin (Gibco BRL), 100 U/mL penicillin and […] streptomycin. After placing these cells (5×10^5) into a 6-well plate and culturing them for 24 hours, they were allowed to stand on a serum-free Ham F-12 medium for 2 hours. The compound was first dissolved in DMSO, repeatedly diluted by ten times with Ham F-12 supplemented with 1 mM isobutylmethyl-xanthine and 1 mM ascorbic acid to a final concentration of from 10^−5 to 10^−12 M, and then added to the cells. After the cells were cultured for 30 minutes, the medium was removed, followed by addition of 0.5 mL of 1 N NaOH. […] The medium was stirred and then centrifuged, followed by quantitating cAMP with cAMP EIA kit (mfd. by Cayman). […]

`Cc1n[nH]c2cc(OCCNC[C@H](O)c3ccc(F)c(NS(C)(=O)=O)c3)ccc12` was tested, and the EC50 (CHO cells expressing human β3, cAMP, 30 minutes) was 24 nM and the “Intrinsic activity*” value (Relative activities (%) as compared with isoproterenol) was 56%.
